This test deals with SARS-COV-2 PLpro (Severe acute respiratory syndrome coronavirus 2, UniProt P0DTD1). In words: biochemical. Particulars: read-out: Inhibition percentage (%).

On to `CC1=C(/C=C/C(C)=C/C=C/C(C)=C\C(=O)O)C(C)(C)CCC1` [isotretinoin, 13-cis-retinoic acid, reference compound], for which the inhibition at 50 µM is 20.9 ± 1.24%.
